Values of other authors as cited in patent publication US7737253B2, “Human cancer stem cell culture compositions comprising Erbb2 variants and methods of use thereof” (BresaGen, Inc., priority 2006, dated 2010).

Test system: breast cancer that over-expresses Erbb2
Conditions: cited from earlier work

For Trastuzumab, the “severe side effect of treatment” value (a significant number of women) is listed as “treatment-induced cardiotoxicity”, the “proportion of breast cancers in which progression is slowed” value (breast cancer patients) is listed as “approximately 30%” and the “clinical benefit of first-line chemotherapy” value (large-scale clinical trial, metastatic breast cancer that over-expresses Erbb2) is listed as “increased the clinical benefit”.
